Laboratory results published in patent US12258354B2, “AhR modulators” (IDEAYA BIOSCIENCES, INC., priority 2018, dated 2025).
pIC50: −log10 of the molar value.

Amino acid sequences for entries named in this document (tags omitted). Residues count along the entry.
UniProt P35869, 11-848 limits assumed: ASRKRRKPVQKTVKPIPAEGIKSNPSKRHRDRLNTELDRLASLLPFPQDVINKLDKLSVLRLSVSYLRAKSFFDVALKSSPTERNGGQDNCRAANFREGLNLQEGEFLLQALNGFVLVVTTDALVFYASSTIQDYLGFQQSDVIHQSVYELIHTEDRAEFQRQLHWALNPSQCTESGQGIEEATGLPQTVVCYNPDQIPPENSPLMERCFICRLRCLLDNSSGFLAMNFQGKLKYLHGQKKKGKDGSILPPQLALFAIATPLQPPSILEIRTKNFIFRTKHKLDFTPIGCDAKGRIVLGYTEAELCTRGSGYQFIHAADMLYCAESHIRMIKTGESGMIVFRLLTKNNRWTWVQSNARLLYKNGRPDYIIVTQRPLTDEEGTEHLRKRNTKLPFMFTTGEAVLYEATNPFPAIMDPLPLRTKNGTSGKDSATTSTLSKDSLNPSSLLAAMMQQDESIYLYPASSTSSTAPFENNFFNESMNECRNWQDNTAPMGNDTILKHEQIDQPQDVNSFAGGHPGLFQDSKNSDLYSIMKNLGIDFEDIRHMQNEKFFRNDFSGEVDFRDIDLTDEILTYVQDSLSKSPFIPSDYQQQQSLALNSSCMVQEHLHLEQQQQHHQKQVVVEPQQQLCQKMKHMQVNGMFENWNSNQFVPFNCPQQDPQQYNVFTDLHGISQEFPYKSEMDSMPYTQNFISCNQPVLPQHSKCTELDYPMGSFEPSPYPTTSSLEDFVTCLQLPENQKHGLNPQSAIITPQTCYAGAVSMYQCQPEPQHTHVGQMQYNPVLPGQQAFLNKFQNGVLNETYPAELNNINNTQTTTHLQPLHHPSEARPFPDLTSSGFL

Biological target: hAhR (Homo sapiens, UniProt P35869)
Test: DRE-luciferase transcriptional reporter assay in HEPG2 DRE-Luc cells, TCDD-induced (antagonist mode)
Settings: read-out: IC50 hAhR (antagonist mode), relative IC50, 3 nM TCDD, 24-hour incubation, firefly luciferase readout
Method: HEPG2 and HEPA1C1C7 cells were maintained in MEM and αMEM without nucleosides supplemented with 10% heat inactivated FBS respectively. Stably integrated DRE-luciferase cell lines were generated by transducing the both cell lines with Cignal XRE luciferase reporter (Qiagen) lentiviral particles according to the manufacturer protocol. For both cell lines stably integrated reporter cell lines were selected for the presence of 2 μg/mL puromycin. Following selection of stably integrated cell line pools, clonal cell lines were isolated by limiting dilution in 96-well plates. Transcriptional assays were performed by seeding 100 μL of cells at a density of 250,000 or 100,000 cells/mL, for HEPG2 and HEPA1C1C7 DRE-Luc cells respectively, into 96-well cell culture plates in OptiMEM supplemented with 0.5% heat inactivated FBS and allowed to attach overnight. […] Firefly luciferase activity was measured immediately following the addition of 50 μL Luciferase Assay Reagent (Promega). The percent maximal activity for each point was determined using the following equation: (RLUsample−RLUvehicle−TCDD)/(RLUvehicle+TCDD RLUvehicle−TCDD)*100. The relative IC50, defined as the compound concentration required to reduce the TCDD induced response between the top and bottom plateau of each individual dose response curve by half, for each compound was determined using Prism 7 (GraphPad Software).

Cc1cc(-c2ncc3cc(C(F)(F)F)ccc3n2)ccc1N1CCOc2cnn(CCN(C)C)c2C1=O
pIC50: 5.00 to 6.00
